Reference: US6783949B1, “Processes for determining whether a test substance contains lipases or lipase inhibitors” (Aventis Pharma Deutschland GmbH, priority 1999, dated 2004)

By UniProt entry, the sequences of proteins in these tests, tags left out. Residues count along the entry.
UniProt P15304, 301-1068: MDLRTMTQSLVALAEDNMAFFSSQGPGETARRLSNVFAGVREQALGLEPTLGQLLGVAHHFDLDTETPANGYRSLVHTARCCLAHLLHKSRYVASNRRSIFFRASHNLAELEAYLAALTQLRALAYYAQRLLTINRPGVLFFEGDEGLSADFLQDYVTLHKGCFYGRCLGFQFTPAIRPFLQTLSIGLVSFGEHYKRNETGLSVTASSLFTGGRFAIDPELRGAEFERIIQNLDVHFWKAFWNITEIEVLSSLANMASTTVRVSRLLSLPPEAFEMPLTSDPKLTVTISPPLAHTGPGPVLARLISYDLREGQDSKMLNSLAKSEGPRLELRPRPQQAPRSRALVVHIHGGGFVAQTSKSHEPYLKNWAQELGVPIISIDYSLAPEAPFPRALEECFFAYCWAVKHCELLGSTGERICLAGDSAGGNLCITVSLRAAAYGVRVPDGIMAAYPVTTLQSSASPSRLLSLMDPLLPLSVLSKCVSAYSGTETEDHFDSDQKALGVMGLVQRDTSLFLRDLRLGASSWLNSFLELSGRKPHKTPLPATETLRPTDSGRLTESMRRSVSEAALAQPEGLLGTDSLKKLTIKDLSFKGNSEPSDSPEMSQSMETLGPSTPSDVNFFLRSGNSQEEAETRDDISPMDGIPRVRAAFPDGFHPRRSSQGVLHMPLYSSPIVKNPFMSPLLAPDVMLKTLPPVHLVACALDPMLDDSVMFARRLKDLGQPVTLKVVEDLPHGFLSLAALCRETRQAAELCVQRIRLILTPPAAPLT

Experiments:
HSL [1] = biological target: T1, HSL (Rattus norvegicus, UniProt P15304); test: TAG assay ([3H]trioleoylglycerol cleavage); conditions: read-out: IC50, TAG assay
HSL [2] = biological target: T1, HSL; test: Indirect NAG assay (extinction increase at 481 nm); conditions: read-out: IC50, NAG assay, 20 μg HSL, 60 min
HSL [3] = biological target: T1, HSL; test: Direct NAG assay (released NBD-FA, TLC/fluorimetry); conditions: read-out: IC50, NBD-FA released; Example 5, Table 5; 20 μg HSL, 60 min; n=6, mean±SD
HSL [4] = biological target: T1, HSL; test: Tributyrin assay; conditions: read-out: IC50, Tributyrin assay; Example 6, Table 6; n=5, mean±SD
HSL [5] = biological target: T1, HSL; test: PNPB assay; conditions: read-out: IC50, PNPB assay; Example 6, Table 6; n=5, mean±SD
[6] = Example 5, Table 5, n=6, mean±SD
[7] = Example 6, Table 6, n=5, mean±SD

SMILES	IC50 (HSL [1]; [6])	IC50 (HSL [1]; [7])	IC50 (HSL [2]; [6])	IC50 (HSL [2]; [7])	IC50 (HSL [3])	IC50 (HSL [4])	IC50 (HSL [5])
CC(=O)OCC(COC(=O)CCCCCCCCCCCNc1ccc([N+](=O)[O-])c2nonc12)OC(C)=O (centres unmarked) [Compound (4), 2-Acetoxy-3-[12-(7-nitrobenzo[1,2,5]oxadiazol-4-ylamino)-dodecanoyloxy]propyl acetate]	18.2 µM	20.4 µM	2.45 µM	3.18 µM	2.98 µM	> 100 µM	93.6 µM
CCCCCCCCCCCCCCCCCCOCC(COC(=O)CCCCCCCCCCCNc1ccc([N+](=O)[O-])c2nonc12)OCCCCCCCCCCCCCCCCCC (centres unmarked)	35.9 µM	35.5 µM	4.29 µM	4.94 µM	5.09 µM	7.88 µM	12.6 µM
O=C(O)CCCCCCCCCCCNc1ccc([N+](=O)[O-])c2onnc12	5.21 µM	7.45 µM	0.78 µM	0.85 µM	0.78 µM	2.56 µM	3.56 µM

More lines, now with the values ahead:

IC50 (HSL [1]; [6])	IC50 (HSL [1]; [7])	IC50 (HSL [2]; [6])	IC50 (HSL [2]; [7])	IC50 (HSL [3])	IC50 (HSL [4])	IC50 (HSL [5])	SMILES
33.1 µM	30.2 µM	3.82 µM	4.56 µM	4.51 µM	38 µM	75.3 µM	CCCCCCCCCCCCCCCC(=O)OCC(COC(=O)CCCCCCCCCCCNc1ccc([N+](=O)[O-])c2nonc12)OC(C)=O (centres unmarked) [Compound (7), 2-Acetyloxy-3-[12-(7-nitrobenzo[1,2,5]oxadiazol-4-ylamino)-dodecanoyloxy]propyl hexadecanoate]
18.9 µM	25.3 µM	2.79 µM	2.96 µM	3.58 µM	4.09 µM	10.5 µM	CCCCCC(=O)OCC(COC(=O)CCCCCCCCCCCNc1ccc([N+](=O)[O-])c2nonc12)OC(=O)CCCCC (centres unmarked) [Compound (5), 2-Hexanoyloxy-3-[12-(7-nitrobenzo[1,2,5]oxadiazol-4-ylamino)-dodecanoyloxy]propyl hexanoate]
